This is an account of results in PubChem BioAssay AID1766 (National Center for Advancing Translational Sciences (NCATS), 2009).

“And” between values parts separate entries of the source, which are not always exact repeats. Identical values can stand only once. This is a selection; strong and weak results do not stand in their true shares. Records with an inconclusive call do not appear. The source made the active and inactive calls. The call rests on the fitted dose curve; in most records, active means well fitted curve in the direction sought with a large enough effect in the polarisation (not every such curve was filed as active); inconclusive means small, poorly fitted or top-dose-only effect, or effect the other way, or a change in a side signal; inactive means no such curve, though single readings can be large or run the other way; the % refers to the polarisation.

A short description of this assay: qHTS Assay for Inhibitors Targeting the Menin-MLL Interaction in MLL Related Leukemias: Competition With Fluorescein Labeled MLL-derived Peptide. Further: % of control where 0% means no effect. To be noted: Fluorescence polarization, fluorescein-MLL peptide displacement from menin. (In qHTS, concentration-response curves come from the screen itself.)
Where [1] appears, read: at 61.4 µM (top of the series) unless noted.

As to `C[As](=O)(O)c1cccc(C(=O)O)c1`, the FP activity change under setting [1] was inactive: -4.84%.

`O=[As](O)(c1ccc(O)cc1)c1ccccc1O`: under setting [1], the FP activity change is inactive: 1.02%.

As for `CC1=NCCc2c1[nH]c1ccccc21.O=[N+]([O-])c1cc([N+](=O)[O-])c(O)c([N+](=O)[O-])c1`, under setting [1], the FP activity change is inactive: 9.32%.

As for `O=[N+]([O-])c1ccc2c(c1)nnn2O`, the FP activity change under setting [1] is inactive: -1.16%.

For the compound `CN(C(=O)Cc1ccccc1)[C@@H]1CC[C@]2(CCCO2)C[C@H]1N1CCCC1`, the FP activity change under setting [1] is inactive: 2.99% and inactive: 4.07%.

For `CCOP1(=S)c2c(C)nn(CCC#N)c2N=C(c2ccc(F)cc2)N1C` (configuration not stated), the FP activity change under setting [1] is inactive: 1.98%.

As to `O=[N+]([O-])OCC(CO[N+](=O)[O-])(CO[N+](=O)[O-])CO[N+](=O)[O-]`, the FP activity change under setting [1] was inactive: 0.415%.

Consider `O=[N+]([O-])CC(O)c1ccc([N+](=O)[O-])cc1` (configuration not stated), for which the FP activity change under setting [1] is inactive: 0.0665%.

Consider `NC(=O)Nc1ccc([As](=O)(O)O)cc1`, for which the FP activity change (at 24.8 µM (top of the series)) is inactive: -6.24% and the FP activity change (at 61.4 µM (top of the series)) was inactive: 3.22%.

As to `Nc1ccccc1[As](=O)(O)c1ccccc1`, the FP activity change under setting [1] was inactive: 3.24%.

With `O=C(O)COc1ccc([As](=O)(O)O)cc1[N+](=O)[O-]`, the FP activity change under setting [1] was inactive: -27.7%.

With `O=P(Nc1nccs1)(c1ccccc1)c1nc2ccccc2s1` (configuration not stated), the FP activity change under setting [1] is inactive: 3.88%.

Take `O=[N+]([O-])c1cccc([N+](=O)[O-])c1`: the FP activity change under setting [1] is inactive: 1.31%.

Consider `O=P(Nc1nccs1)(Oc1ccccc1)Oc1ccccc1`, for which the FP activity change under setting [1] was inactive: 1.43%.

For `CCOP1(=S)c2c(C)nn(CCC#N)c2N=C(c2ccccc2F)N1C` (configuration not stated), the FP activity change under setting [1] was inactive: 0.333%.

Turning to `CCOP(=O)(Nc1cccc2ccccc12)OCC`, under setting [1], the FP activity change is inactive: 3.6%.

For the compound `CCCOP(=S)(Nc1nc(N)cc(=O)[nH]1)OCCC`, the FP activity change under setting [1] is inactive: 4.73%.

Take `Cc1ccc(C)c(NP(C)(=O)Oc2ccccc2)c1` (configuration not stated): the FP activity change under setting [1] is inactive: 3.45%.

With `Cc1ccc(NCCc2c([N+](=O)[O-])cc([N+](=O)[O-])cc2[N+](=O)[O-])cc1`, under setting [1], the FP activity change is inactive: 1.06%.

Turning to `CP(=O)(Nc1cccc(Br)c1)Oc1ccccc1` (configuration not stated), the FP activity change under setting [1] was inactive: 1.98%.

`Cc1cc(C)cc(OP(C)(=O)Nc2ccccn2)c1` (configuration not stated): the FP activity change under setting [1] was inactive: 0.698%.

As to `CCOC(=O)c1ccc(NP(C)(=O)Oc2cc(C)cc(C)c2)cc1` (configuration not stated), the FP activity change under setting [1] is inactive: 0.758%.

As to `Cc1cc(C)cc(OP(C)(=O)Nc2ccc(C)cc2C)c1` (configuration not stated), the FP activity change under setting [1] was inactive: 3.9%.

As to `O=[As](O)(c1cccc(O)c1)c1cccc(O)c1`, the FP activity change under setting [1] is inactive: 6.7%.

`Cc1cccc(OCC(=O)OC2CN3CCC2CC3)c1` (configuration not stated): the FP activity change under setting [1] is inactive: 1.46%.

For the compound `COc1ccccc1OP(C)(=O)Nc1cccc(Br)c1` (configuration not stated), the FP activity change under setting [1] is inactive: -3.09%.

Regarding `COc1cc(C(=O)NCC2(N3CCOCC3)CCCCC2)cc(Cl)c1OC(C)C`, under setting [1], the FP activity change was inactive: 1.02%.

In the case of `O=[As](O)(O)c1cccnc1`, under setting [1], the FP activity change was inactive: -2.5%.

For `CN(C(=O)Cc1ccc(Cl)c(Cl)c1)[C@@H]1CC[C@]2(CCCO2)C[C@H]1N1CCCC1`, the FP activity change under setting [1] is inactive: 2.65%.

For the compound `O=C(OC1CN2CCC1CC2)c1ccc(Cl)cc1` (configuration not stated), the FP activity change under setting [1] is inactive: -5.3%.

With `Cc1nc2ccc3ccccc3c2s1.O=[N+]([O-])c1cc([N+](=O)[O-])c(O)c([N+](=O)[O-])c1`, the FP activity change under setting [1] was inactive: -0.749%.

For the compound `O=[As](O)(c1ccccc1Br)c1ccccc1Br`, under setting [1], the FP activity change is inactive: 3.22%.

Turning to `CC(C)/C=N\N=C(\N)N[N+](=O)[O-]`, under setting [1], the FP activity change is inactive: 0.116%.

For the compound `CC(C)N(CCCl)C(C)C`, under setting [1], the FP activity change is inactive: -4.08%.

`CC(C)(C)C(=O)NC(Sc1ncccn1)C(Cl)(Cl)Cl` (configuration not stated): the FP activity change under setting [1] is inactive: -7.11%.

As for `Clc1n[nH]nc1-c1nn[nH][15n]1`, the FP activity change under setting [1] was inactive: 1.02%.

`CN(CCCl)Cc1cc(Cl)c(NC2=NCCN2)c(Cl)c1`: the FP activity change under setting [1] was inactive: 2.77%.

For `CCOP(=O)(Nc1ccc(C)cn1)OCC`, the FP activity change under setting [1] was inactive: 4.39%.

In the case of `O=[N+]([O-])c1cc([N+](=O)[O-])c(-n2nnc3ccccc32)c([N+](=O)[O-])c1`, the FP activity change under setting [1] was inactive: -0.642%.

As to `O=P1(Nc2ccccn2)COc2ccccc2OC1`, under setting [1], the FP activity change is inactive: 4.99%.

Consider `CCC1=CC2Cc3nc4ccc(Cl)cc4c(N)c3C(C1)C2` (configuration not stated), for which, under setting [1], the FP activity change was inactive: 2.5%.

Take `O=P1(Nc2ccc(Br)cn2)COc2ccccc2OC1`: under setting [1], the FP activity change is inactive: 1.62%.

With `Cc1ccc(OCC(=O)OC2CN3CCC2CC3)cc1` (configuration not stated), the FP activity change under setting [1] was inactive: -4.19%.

As to `CP(=O)(Nc1ccc(SC(F)(F)F)cc1)Oc1ccccc1` (configuration not stated), under setting [1], the FP activity change is inactive: 6.98%.

`Nc1cccc([As](=O)(O)c2ccccc2)c1`: the FP activity change under setting [1] was inactive: 0.0348%.

Turning to `CCCOc1ccc(NP(C)(=O)Oc2ccc(Cl)cc2)cc1` (configuration not stated), under setting [1], the FP activity change was inactive: -0.623%.

For the compound `O=P1(Nc2ncccn2)COc2ccccc2OC1`, the FP activity change under setting [1] is inactive: 4.21%.

On to `COc1ccccc1OP(C)(=O)Nc1c(C)cccc1C` (configuration not stated), for which the FP activity change under setting [1] is inactive: 5.33%.

Regarding `CN1CCCCC1COC(=O)C1(O)c2ccccc2CCc2ccccc21` (configuration not stated), under setting [1], the FP activity change was inactive: 2.22%.

With `O=C(/C=C/c1ccccc1)OC1CN2CCC1CC2` (configuration not stated), under setting [1], the FP activity change is inactive: -0.359%.

On to `O=[N+]([O-])c1cc([N+](=O)[O-])c(Nc2nnnn2CCO)c([N+](=O)[O-])c1`, for which the FP activity change under setting [1] was inactive: 7.58%.
